Earlier results, collected in US20240011094A1, “METHODS FOR DIAGNOSIS AND TREATING POLYCYSTIC OVARY SYNDROME (PCOS)” (INSTITUT NATIONAL DE LA SANTÉ ET DE LA RECHERCHE MÉDICALE, priority 2020, published 2024).

Protein sequences, listed by entry. Tags and fused reporters are not part of them. Lines headed by an entry give the natural chain unless they say otherwise; changes in a name come on top.
UniProt Q3URK3: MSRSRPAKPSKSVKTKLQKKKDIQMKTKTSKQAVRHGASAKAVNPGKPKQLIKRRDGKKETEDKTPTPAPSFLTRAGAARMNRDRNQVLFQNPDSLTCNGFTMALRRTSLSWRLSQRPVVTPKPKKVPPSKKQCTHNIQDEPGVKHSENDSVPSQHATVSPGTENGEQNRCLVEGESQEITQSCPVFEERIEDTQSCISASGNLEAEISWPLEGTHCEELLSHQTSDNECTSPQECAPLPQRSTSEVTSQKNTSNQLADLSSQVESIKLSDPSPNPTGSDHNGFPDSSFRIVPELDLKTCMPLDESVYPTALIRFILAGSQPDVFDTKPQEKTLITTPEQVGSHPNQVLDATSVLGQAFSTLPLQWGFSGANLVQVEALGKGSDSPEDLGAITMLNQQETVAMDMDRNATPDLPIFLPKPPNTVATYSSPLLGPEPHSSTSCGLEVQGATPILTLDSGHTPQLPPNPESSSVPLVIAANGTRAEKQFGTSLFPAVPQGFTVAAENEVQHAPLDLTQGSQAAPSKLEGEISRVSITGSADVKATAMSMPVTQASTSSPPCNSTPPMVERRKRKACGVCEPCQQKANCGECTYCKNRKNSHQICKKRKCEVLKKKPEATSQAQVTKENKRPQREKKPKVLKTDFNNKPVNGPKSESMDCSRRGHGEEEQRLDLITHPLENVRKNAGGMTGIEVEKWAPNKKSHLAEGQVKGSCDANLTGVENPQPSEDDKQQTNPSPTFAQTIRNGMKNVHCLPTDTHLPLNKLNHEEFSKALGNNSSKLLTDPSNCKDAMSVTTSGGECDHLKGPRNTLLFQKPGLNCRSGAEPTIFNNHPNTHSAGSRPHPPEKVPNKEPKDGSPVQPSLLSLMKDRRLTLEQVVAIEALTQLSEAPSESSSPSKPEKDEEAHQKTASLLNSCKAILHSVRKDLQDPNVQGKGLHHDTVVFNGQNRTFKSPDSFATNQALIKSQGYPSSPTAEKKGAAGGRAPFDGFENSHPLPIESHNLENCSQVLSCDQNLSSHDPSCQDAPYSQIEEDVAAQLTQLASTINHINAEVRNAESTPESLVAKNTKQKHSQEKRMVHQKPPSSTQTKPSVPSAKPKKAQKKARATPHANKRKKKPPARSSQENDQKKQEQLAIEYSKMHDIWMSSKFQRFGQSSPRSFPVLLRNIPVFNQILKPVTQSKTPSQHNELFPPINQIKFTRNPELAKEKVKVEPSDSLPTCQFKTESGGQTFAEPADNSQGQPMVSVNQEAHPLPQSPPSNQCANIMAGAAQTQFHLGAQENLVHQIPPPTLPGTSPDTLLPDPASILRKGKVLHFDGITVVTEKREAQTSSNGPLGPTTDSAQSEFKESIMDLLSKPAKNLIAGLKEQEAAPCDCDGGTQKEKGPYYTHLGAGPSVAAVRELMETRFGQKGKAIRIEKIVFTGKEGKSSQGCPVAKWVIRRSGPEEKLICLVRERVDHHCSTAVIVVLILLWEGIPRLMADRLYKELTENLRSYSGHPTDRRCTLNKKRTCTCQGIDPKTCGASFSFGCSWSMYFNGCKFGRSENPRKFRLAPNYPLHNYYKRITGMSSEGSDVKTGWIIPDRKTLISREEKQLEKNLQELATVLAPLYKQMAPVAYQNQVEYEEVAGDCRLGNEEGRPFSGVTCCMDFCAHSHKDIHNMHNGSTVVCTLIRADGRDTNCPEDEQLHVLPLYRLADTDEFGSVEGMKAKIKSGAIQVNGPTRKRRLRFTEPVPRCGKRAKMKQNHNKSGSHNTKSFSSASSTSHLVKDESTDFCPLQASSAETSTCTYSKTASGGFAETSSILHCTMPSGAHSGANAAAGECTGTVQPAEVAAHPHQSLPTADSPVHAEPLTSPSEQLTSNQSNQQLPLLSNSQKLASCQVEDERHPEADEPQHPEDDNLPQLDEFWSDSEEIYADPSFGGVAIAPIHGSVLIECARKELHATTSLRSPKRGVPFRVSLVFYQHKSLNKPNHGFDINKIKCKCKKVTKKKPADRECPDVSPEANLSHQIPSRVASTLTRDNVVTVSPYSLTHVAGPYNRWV

Target: mTET1 (Mus musculus, UniProt Q3URK3)
Details: cited from earlier work

Substance: Succinate [Molecule 31]
- IC50: 540 µM
